{"source": "patent US11168131B2", "about": "“Antibody molecule-drug conjugates and uses thereof” (priority 2015, dated 2021)", "test_system": "red blood cells", "assay": "Red blood cell hemolysis assay (MLC, PLC)", "assay_type": "cell-based", "data": [{"smiles": "O=C(O)c1cn(C2CC2)c2cc(N3CCNCC3)c(F)cc2c1=O", "note": "[Ciprofloxacin, reference compound]", "values": [{"measurement": "Hemolysis PLC", "setting": "concentration that led to 50% red blood cell lysis", "result": ">1", "unit": "µg/mL"}, {"measurement": "Hemolysis MLC", "setting": "concentration that led to 100% red blood cell lysis", "result": ">1", "unit": "µg/mL"}, {"measurement": "MLC/MIC", "setting": "ratio of MLC to MIC", "result": ">4"}, {"measurement": "PLC/MIC", "setting": "ratio of PLC to MIC", "result": ">4"}]}]}
